These results are taken from article PMC6974774, “NanoBiT Complementation to Monitor Agonist-Induced Adenosine A1 Receptor Internalization” (Slas Discovery, 2019).

By UniProt entry, the sequences of proteins in these tests, tags left out.
UniProt P30542, whole entry M1L: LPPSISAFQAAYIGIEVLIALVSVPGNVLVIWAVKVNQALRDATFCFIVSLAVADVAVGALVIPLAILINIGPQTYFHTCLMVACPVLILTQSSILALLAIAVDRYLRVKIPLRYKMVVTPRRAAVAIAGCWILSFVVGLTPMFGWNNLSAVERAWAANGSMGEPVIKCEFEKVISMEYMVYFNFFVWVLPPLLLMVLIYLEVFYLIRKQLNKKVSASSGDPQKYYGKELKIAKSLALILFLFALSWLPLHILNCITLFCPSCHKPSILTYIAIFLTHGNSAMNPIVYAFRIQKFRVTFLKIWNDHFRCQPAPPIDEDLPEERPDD

This assay concerns the target HiBiT–A1AR (human adenosine A1 receptor) (Homo sapiens, UniProt P30542, M1L). Put plainly: NanoBiT internalization assay (loss of cell-surface HiBiT–A1AR luminescence). It counts as cell-based. More on the design: creating the full-length fusion protein HiBiT–A1AR; expressed in transfected cells. How it is done:
HEK293 cells stably expressing HiBiT–A1AR were plated onto white 96-well plates (Greiner Bio-One, Monroe, NC) previously coated with 10 µg/mL poly-D-lysine. 100 µL DMEM containing cells in suspension (30,000 cells/well) was added to each well, and the plate incubated at 37 °C in a 5% CO2 atmosphere for 24 h. […] For end-point assays, cells were incubated at 37 °C for 2 h. Purified LgBiT was diluted in HBSS (10 nM final concentration) and added to each well in the presence of furimazine (1:400 final concentration). […] Luminescence was measured on the PHERAstar FS plate reader (BMG Labtech, Offenburg, Germany) using the LUM Plus module.
The potency of ligands that internalized HiBiT–A1AR was determined from fitting data to a one-site sigmoidal concentration–response curve defined by the following three-parameter logistic equation: […]
(In general: With HiBiT, luminescence reflects the tagged protein that the partner subunit can reach.)

As to `CCNC(=O)[C@H]1O[C@@H](n2cnc3c(N)ncnc32)[C@H](O)[C@@H]1O` [NECA, 5′-N-ethylcarboxamidoadenosine], the “agonist character in internalization assay” value (HEK293 HiBiT–A1AR, panel of A1 receptor agonists) is “full agonists”. Moreover, the “Emax (% 100 µM NECA)” value (HEK293 cells, 2 h incubation) came out at 100 % 100 µM NECA.
